Literature values in paper PMC2808703 (Bioorganic & medicinal chemistry, 2009).

Tested on: mouse xenograft model of pancreatic cancer
Details: cited from earlier work

SMILES: CCCCCCCCCCCCc1ccc(S(=O)(=O)Nc2nncs2)cc1 [Compound 14]
- Antitumor activity in vivo: significant antitumor activity with cessation of tumor growth
